Apparent affinities of Ab-14 variants for a coronavirus HR2 peptide

From the AlphaSeq antibody data of Li et al. 2023 (doi:10.1038/s41467-023-39022-2), copy in the FLAb collection.

Antigen: PDVDLGDISGINAS, a 14-residue peptide of the SARS-CoV-2 spike HR2 region.

Parent scFv Ab-14: VH joined to VL by a (GGGGS)3 linker. Changes lie in the light chain CDRs alone.
VH: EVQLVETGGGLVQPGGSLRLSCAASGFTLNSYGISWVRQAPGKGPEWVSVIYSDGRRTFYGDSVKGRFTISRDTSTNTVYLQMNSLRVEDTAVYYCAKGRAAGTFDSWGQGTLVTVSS
VL: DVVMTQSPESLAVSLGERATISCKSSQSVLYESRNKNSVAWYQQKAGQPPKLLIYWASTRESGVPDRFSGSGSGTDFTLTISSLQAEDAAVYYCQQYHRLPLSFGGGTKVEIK

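The parent was found by panning a naive human phage display library on the peptide. These sequences belong to a second round, designed from the earlier measurements on random variants of the parent. Several design methods are mixed in this list. In AlphaSeq, yeast of one mating type display the scFv and yeast of the other type display the target. The frequency of each diploid, read from paired DNA barcodes, reflects how well the two displayed proteins bind. The ratio of observed to expected reads was calibrated, replicate by replicate, on BCL2-family standards whose Kd was known from biolayer interferometry. Mating was done six times.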

Each variant is given by its three light chain CDRs, as the data file delimits them; those of the parent are KSSQSVLYESRNKNSVA, WASTRES, QQYHRLPLS.
Values are apparent Kd, the geometric mean of the replicates that gave a signal; lower means stronger binding.
"nd" marks a missing value. The strain was present, yet no cells mated with the target were sequenced in any replicate, which points to weak or no binding.
As a blank, each scFv also met three strains without target: over all light chain designs, 4% of these pairings were detected, typically at 430 nM and seldom below 38 nM. The control count says in how many pairings with the empty strains this scFv gave a signal.
Of ten entries with the parent sequence, four were seen in most replicates (averages 2.2 nM to 240 nM), three in one and three in none, so single entries are noisy.
In the paper, a design with two or fewer of six values counts as a poor binder.
Some sequences occur more than once in the pool; their replicates are pooled.
A sequence measured in both rounds can read differently, since the two assays cover different ranges.

For KFSQSVLYESRNMNSVA, LASTREE, QQYHRLPLD, the assay gave 75 nM (6 of 6 replicates; controls 1 of 18).
For KLSQSVLYESRNKNSVA, SASTRMS, QQYHRLPLS, the assay gave 960 pM (6 of 6 replicates; controls 0 of 18).
For KSAQSVLMESRNKNSVA, WASTRES, QQYHRLPLS, the assay gave 370 nM (4 of 6 replicates; controls 0 of 18).
For KLSMSTLYESRNKNSVA, WASTRES, QQYHRLPLS, the assay gave 4.9 nM (6 of 6 replicates; controls 1 of 18).
For KSSQSVLYESDNKNSVA, QASTREK, QQYHRLPLS, the assay gave 1.0 nM (6 of 6 replicates; controls 1 of 18).
For KSSQSGLNESRNKNNVA, GASTRES, QQYHRLPLS, the assay gave 570 pM (6 of 6 replicates; controls 0 of 18).
For KVSQSMEYQSRNKNNVA, EASTREQ, QSYHRLPLS, the assay gave 480 pM (6 of 6 replicates; controls 1 of 18).
For KISQSYLYESRNKNSVA, GASTRES, QQYHRLPLS, the assay gave 650 pM (6 of 6 replicates; controls 1 of 18).
For KLMSHEWHGTARNSAMA, NAQVSHD, QQYSRLPLA, the assay gave 140 nM (6 of 6 replicates; controls 0 of 18).
For KSSQAVLYESRNKNSVA, WAITRES, QQYHRLPLS, the assay gave 210 nM (1 of 6 replicates; controls 0 of 18).
For VMFMGLYWQNDEHYAIA, NVTMREK, QQYHRLPLQ, the assay gave 7.0 nM (6 of 6 replicates; controls 0 of 18).
For KSSISGLYESRNENSVA, EASTREQ, QQYHRLPLS, the assay gave 4.9 nM (6 of 6 replicates; controls 0 of 18).
For KLRQSTLYESRNPNSVA, QASLRES, QQYHRLPLS, the assay gave 1.4 nM (6 of 6 replicates; controls 1 of 18).
For KSSISDLYESRNCNSVA, WASTRES, QQYIRLPIS, the assay gave nd (0 of 6 replicates; controls 0 of 18).
For KSSQSVLYESRNKNSVA, DASTRES, QQYHRLPLS, the assay gave 1.4 nM (12 of 12 replicates; controls 2 of 36).
For QVVDEQWAEGQNIQSIA, EGEVRKD, QQYNRLPLS, the assay gave 97 nM (1 of 6 replicates; controls 0 of 18).
For KFSPSVLYEDRNWNSVA, QASQRNS, QQYHRLPLS, the assay gave 2.5 nM (6 of 6 replicates; controls 3 of 18).
For KMSQSVKYESRNKNSVA, DASTRES, QQYHRLPLS, the assay gave 1.3 nM (6 of 6 replicates; controls 1 of 18).
For KSYQSVHAESFNKNSVA, WASTRES, QQYHRLPLS, the assay gave nd (0 of 6 replicates; controls 0 of 18).
For KLQQSVQYESRNKNSVA, NASDRQS, QQYHRLPLS, the assay gave 670 pM (6 of 6 replicates; controls 1 of 18).
For KSSQSWLYEDRVKNSVA, GASTRES, QQYHRLPLS, the assay gave 2.1 nM (6 of 6 replicates; controls 0 of 18).
For KLSQSWLYESRNKNSVA, HASQRES, QQYHRLPLS, the assay gave 1.3 nM (6 of 6 replicates; controls 1 of 18).
For KLSQSHLYESRNKNSVA, QASQRES, QQYHRLPLS, the assay gave 360 pM (6 of 6 replicates; controls 0 of 18).

The remaining entries, values ahead:

2.2 nM (6 of 6 replicates; controls 2 of 18): KVSQSWLYEDRVKNSVA, GADTRES, QQYHRLPLS.
1.4 nM (6 of 6 replicates; controls 0 of 18): KLSQSELYESRNKNSVA, EASQRCS, QQYHRLPLS.
1.5 nM (6 of 6 replicates; controls 0 of 18): QIYQAMHTLSQMKDNVA, DVNERGQ, QQYHRLPLS.
50 nM (6 of 6 replicates; controls 0 of 18): RLSLEHTGYWEMMNNIA, QGSTKQF, QQYDRLPLH.
2.1 nM (6 of 6 replicates; controls 1 of 18): KSSQQVLYETSNKNSVA, EASTRES, QQYHRLPLS.
7.8 nM (6 of 6 replicates; controls 0 of 18): KLMCSQEYESRNTNSVA, NASTRES, QQYHRLPLS.
1.7 nM (6 of 6 replicates; controls 1 of 18): KLDMNELGQSQLSSSVA, GSANKCQ, QQYFRLPLS.
nd (0 of 6 replicates; controls 1 of 18): KSSQSRLYESRNKNSVA, WASTRES, QQFHRLPLS.
1.3 nM (6 of 6 replicates; controls 5 of 18): KLSQSMPYEQRAKNSVA, NASQRES, QQYHRLPLS.
760 pM (6 of 6 replicates; controls 0 of 18): KVMQSKEYESRQKNSVA, NASVREL, QQYHRLPLS.
1.5 nM (6 of 6 replicates; controls 1 of 18): NLPMKELGMSWNANNVA, DSENRIK, QQYSRLPLM.
13 nM (6 of 6 replicates; controls 1 of 18): MISQLYNMGSFAINSVA, QASERCN, QQYDRLPLI.
1.1 nM (6 of 6 replicates; controls 3 of 18): KSSISELYESRNKNSVA, EASTRES, QQYHRLPLS.
340 pM (6 of 6 replicates; controls 3 of 18): KLQQSMLYESRNVNSVA, DASKRES, QQYHRLPLS.
360 nM (6 of 6 replicates; controls 1 of 18): MITAGLRGVGRNKNSVA, NAQTREA, QHYHRLPLS.
1.2 nM (6 of 6 replicates; controls 2 of 18): KISQSVEYEQRDKNSVA, NASTRCQ, QQYHRLPLS.
1.6 nM (6 of 6 replicates; controls 0 of 18): KSSMSVLYESRNKNSVA, DASTRES, QQYHRLPLS.
3.3 nM (6 of 6 replicates; controls 1 of 18): KLSQSVLMESRNKNSVA, SASTRSS, QQYHRLPLS.
730 pM (6 of 6 replicates; controls 4 of 18): KLSQSVLYESRNKNSVA, GASTREK, QQYHRLPLS.
1.1 nM (6 of 6 replicates; controls 1 of 18): SIRQVGCDNQRNHSNIA, DATQIEK, QQYSMLPLS.
950 pM (6 of 6 replicates; controls 5 of 18): KVSQSTLYESLMKNSVA, NASVRSS, QQYHRLPLS.
4.3 nM (6 of 6 replicates; controls 2 of 18): WLSMSVEQQSRNKNAVA, SASTRES, QQYHRLPLS.
7.0 nM (6 of 6 replicates; controls 0 of 18): ALEMDTLGQKPKQNNIA, NARVSTE, QQYYMLPLS.

8 of these entries, quoted again:

The variant RLSLEHTGYWEMMNNIA, QGSTKQF, QQYDRLPLH showed 50 nM (6 of 6 replicates; controls 0 of 18).
The variant KSSISDLYESRNCNSVA, WASTRES, QQYIRLPIS showed nd (0 of 6 replicates; controls 0 of 18).
The variant ALEMDTLGQKPKQNNIA, NARVSTE, QQYYMLPLS showed 7.0 nM (6 of 6 replicates; controls 0 of 18).
The variant MISQLYNMGSFAINSVA, QASERCN, QQYDRLPLI showed 13 nM (6 of 6 replicates; controls 1 of 18).
The variant KLSQSMPYEQRAKNSVA, NASQRES, QQYHRLPLS showed 1.3 nM (6 of 6 replicates; controls 5 of 18).
The variant KLSQSVLMESRNKNSVA, SASTRSS, QQYHRLPLS showed 3.3 nM (6 of 6 replicates; controls 1 of 18).
The variant KSSQSVLYESDNKNSVA, QASTREK, QQYHRLPLS showed 1.0 nM (6 of 6 replicates; controls 1 of 18).
The variant KSSISGLYESRNENSVA, EASTREQ, QQYHRLPLS showed 4.9 nM (6 of 6 replicates; controls 0 of 18).